Biological target: D2(414) receptor (Homo sapiens, UniProt P14416)
Experiment: Competition binding assay with [3H]-spiperone, D2(414) receptor
Parameters: expressed in transfected cells
Settings: 0.5 nM [3H]-spiperone, anti-log of mean log Ki, three experiments, Cheng-Prusoff

Chains of the proteins cited; added tags and fusions are not shown. Residues count along the entry.
UniProt P14416, 1-414 isoform P14416-2: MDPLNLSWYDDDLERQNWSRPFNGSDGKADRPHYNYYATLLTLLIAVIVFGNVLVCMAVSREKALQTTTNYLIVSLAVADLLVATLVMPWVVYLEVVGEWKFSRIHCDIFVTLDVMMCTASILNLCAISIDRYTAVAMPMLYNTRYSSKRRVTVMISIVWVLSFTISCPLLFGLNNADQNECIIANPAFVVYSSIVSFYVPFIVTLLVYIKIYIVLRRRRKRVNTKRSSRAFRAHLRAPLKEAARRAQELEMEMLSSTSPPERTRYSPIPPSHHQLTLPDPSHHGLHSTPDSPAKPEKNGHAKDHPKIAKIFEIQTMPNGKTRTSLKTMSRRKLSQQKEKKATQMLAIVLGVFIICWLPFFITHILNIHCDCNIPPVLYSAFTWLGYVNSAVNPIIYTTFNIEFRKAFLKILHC

Ki: 21 nM
Structure (SMILES): CCCN(CCc1ccccc1)C1CCc2c(O)cccc2C1 (stereo not shown) [N-0434]
